Data set [1] can be described thus: Water absorption (hygroscopicity): water weight gain of the solid. The data set is classed as physicochemical. The method, then:
Compounds that absorb atmospheric moisture may cause inaccurate amount additions into formulations and are also difficult to handle. […] To quantify this characteristic, 1 millimole of each solid was placed in an open vial and enclosed in a 4 liter vessel containing 100 milliliters of exposed water. The weight of each vial was prerecorded and reweighed 18 hours later to determine the water weight gain.

The nature of data set [2]: Shelf life testing: compound stability in solution by 1H NMR peak integration. Conditions: 100 millimolar in deuterated dimethylsulfoxide, 1H NMR at 25° C. The method, then:
Compound stability was monitored by peak integration using ^1H NMR at 25° C. with relaxation delay set to 5 seconds on a 300 Megahertz Varian NMR spectrometer. Compound purity was calculated using the following formula: 100−((sum impurity peaks)/((total impurity peaks)+(total purity peaks))*100).

For the substance “Triphenylsulfonium phenolate [Compar. Example 1, reference compound]”, the “Hygroscopicity (in words)” value in data set [1] was “hygroscopic”. Also, the “Weight Gain relative to Reference (%)” value in data set [1] (1 millimole solid in open vial in 4 liter vessel with 100 milliliters exposed water, 18 hours, reference triphenylsulfonium camphorsulfonate) is listed as 520%. Besides, the “Matter State After Exposure to Water” value in data set [1] (after 18 hours exposure to water vapour) is “Oil”. Also, the “Matter State Before Exposure to Water” value in data set [1] (before exposure) is on record as “Solid”. For the same substance, in data set [2] (0 days), the “Compound Purity (%) 0 days” value is recorded as 100%. Besides, the “Compound Purity (%) 3 days” value in data set [2] (3 days) is given as 79%. The “Compound Purity (%) 14 days” value in data set [2] (14 days) is 60%.
